Results: patent publication US20250255874A1, “Methods for Treating Immune Thrombocytopenia By Administering (R)-2-[3-[4-Amino-3-(2-Fluoro-4-Phenoxy-Phenyl)Pyrazolo[3,4-D]Pyrimidin-1-YL]Piperidine-1-Carbonyl]-4-Methyl-4-[4-(Oxetan-3-YL)Piperazin-1-YL]Pent-2-Enentrile” (Principia Biopharma Inc., priority 2022, published 2025)

What was measured:
[1] = tested on: patients with relapsed/refractory immune thrombocytopenia; assay: Phase 1/2 study (NCT03395210) Part A, safety;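 further: adverse events graded by NCI CTCAE version 4.0, with worsening of pre-existing conditions counted as adverse events, analysed in the Safety Population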
[2] = tested on: patients with relapsed/refractory immune thrombocytopenia; conditions: in vivo;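 further: adverse events graded by NCI CTCAE version 4.0, with worsening of pre-existing conditions counted as adverse events, analysed in the Safety Population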

## CC(C)(C=C(C#N)C(=O)N1CCC[C@@H](n2nc(-c3ccc(Oc4ccccc4)cc3F)c3c(N)ncnc32)C1)N1CCN(C2COC2)CC1 [rilzabrutinib, (R)-2-[3-[4-amino-3-(2-fluoro-4-phenoxy-phenyl)pyrazolo[3,4-d]pyrimidin-1-yl]piperidine-1-carbonyl]-4-methyl-4-[4-(oxetan-3-yl)piperazin-1-yl]pent-2-enenitrile]
[1]; 45 patients initiating 400 mg bid
  dose-limiting toxicities: no dose-limiting toxicities
[1]; 45 patients who initiated 400 bid
  treatment-related grade ≥2 bleeding or thrombotic events: no treatment-related grade ≥2 bleeding or thrombotic events
[1]; Safety Population, N = 60
  Any TEAE, Treatment-Related TEAEs, Grade 3/4: 0 (0) number of patients (percent)
[1]; all doses
  treatment-related grade ≥3 or serious adverse events: No treatment-related grade ≥3 or serious adverse events were observed
[1]; baseline or week 24/EOS, patients who completed 24 weeks (n=34)
  IBLS grade 3, 4, or 5 bleeding events: no grade 3, 4, or 5 bleeding events
[1]; baseline through end of treatment, improved at skin and oral sites
  IBLS bleeding scale scores within each domain: no increase in bleeding
[1]; in vivo
  patients developing platelet counts >400×10^9/L: no patient developed platelet counts >400×10^9/L
  patients with a TEAE that resulted in study drug discontinuation: Seven
[2]
  adverse events typically associated with BTK inhibitors (neutropenia, treatment-related infections, bleeding, thrombotic events, fungal infections, atrial fibrillation): no signs or symptoms
